Data as given in ChEMBL document CHEMBL1153945 (Bioorg Med Chem, 2009).

Protein sequences, listed by entry. Tags and fused reporters are not part of them.
UniProt P29476, whole entry: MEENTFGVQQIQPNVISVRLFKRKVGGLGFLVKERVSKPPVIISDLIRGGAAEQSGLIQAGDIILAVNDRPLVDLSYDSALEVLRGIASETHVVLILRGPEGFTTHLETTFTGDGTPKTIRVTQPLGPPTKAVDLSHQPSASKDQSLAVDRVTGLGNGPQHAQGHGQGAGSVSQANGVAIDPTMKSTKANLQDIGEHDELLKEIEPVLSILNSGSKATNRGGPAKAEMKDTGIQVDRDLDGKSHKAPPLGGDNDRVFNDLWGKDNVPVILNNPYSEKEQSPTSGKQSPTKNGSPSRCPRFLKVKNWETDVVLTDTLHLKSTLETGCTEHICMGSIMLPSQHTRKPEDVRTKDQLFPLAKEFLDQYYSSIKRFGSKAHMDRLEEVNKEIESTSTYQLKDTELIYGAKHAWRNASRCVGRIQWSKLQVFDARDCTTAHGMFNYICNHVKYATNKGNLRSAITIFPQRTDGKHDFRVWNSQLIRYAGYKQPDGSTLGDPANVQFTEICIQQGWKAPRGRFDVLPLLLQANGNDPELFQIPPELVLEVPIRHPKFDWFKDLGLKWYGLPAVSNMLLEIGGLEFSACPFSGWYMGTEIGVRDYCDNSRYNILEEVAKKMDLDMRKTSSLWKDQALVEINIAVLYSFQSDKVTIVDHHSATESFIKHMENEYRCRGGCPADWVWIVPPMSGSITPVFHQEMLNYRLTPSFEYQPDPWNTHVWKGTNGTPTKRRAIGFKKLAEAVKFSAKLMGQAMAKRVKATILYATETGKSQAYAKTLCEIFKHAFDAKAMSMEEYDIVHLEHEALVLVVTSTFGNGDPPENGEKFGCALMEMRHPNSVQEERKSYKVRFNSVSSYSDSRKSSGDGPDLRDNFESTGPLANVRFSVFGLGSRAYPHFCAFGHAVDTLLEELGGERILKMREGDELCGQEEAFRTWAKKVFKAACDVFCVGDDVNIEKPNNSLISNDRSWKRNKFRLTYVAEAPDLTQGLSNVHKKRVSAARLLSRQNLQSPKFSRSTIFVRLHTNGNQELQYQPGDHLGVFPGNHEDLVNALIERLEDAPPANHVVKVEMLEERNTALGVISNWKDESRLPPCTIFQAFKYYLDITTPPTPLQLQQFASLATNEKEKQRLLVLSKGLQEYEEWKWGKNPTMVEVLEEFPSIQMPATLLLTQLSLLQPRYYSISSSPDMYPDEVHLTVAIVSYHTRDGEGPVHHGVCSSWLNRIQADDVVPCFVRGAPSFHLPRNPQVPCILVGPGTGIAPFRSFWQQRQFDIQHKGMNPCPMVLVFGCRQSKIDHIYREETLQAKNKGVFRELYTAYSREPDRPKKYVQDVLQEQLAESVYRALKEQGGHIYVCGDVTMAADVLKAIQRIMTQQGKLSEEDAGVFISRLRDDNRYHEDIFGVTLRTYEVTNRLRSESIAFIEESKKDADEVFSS

Columns and labels:
[1] = molecular target: T1, Nitric oxide synthase, inducible (Mus musculus, UniProt P29477)
T1 sequence (P29477 whole entry): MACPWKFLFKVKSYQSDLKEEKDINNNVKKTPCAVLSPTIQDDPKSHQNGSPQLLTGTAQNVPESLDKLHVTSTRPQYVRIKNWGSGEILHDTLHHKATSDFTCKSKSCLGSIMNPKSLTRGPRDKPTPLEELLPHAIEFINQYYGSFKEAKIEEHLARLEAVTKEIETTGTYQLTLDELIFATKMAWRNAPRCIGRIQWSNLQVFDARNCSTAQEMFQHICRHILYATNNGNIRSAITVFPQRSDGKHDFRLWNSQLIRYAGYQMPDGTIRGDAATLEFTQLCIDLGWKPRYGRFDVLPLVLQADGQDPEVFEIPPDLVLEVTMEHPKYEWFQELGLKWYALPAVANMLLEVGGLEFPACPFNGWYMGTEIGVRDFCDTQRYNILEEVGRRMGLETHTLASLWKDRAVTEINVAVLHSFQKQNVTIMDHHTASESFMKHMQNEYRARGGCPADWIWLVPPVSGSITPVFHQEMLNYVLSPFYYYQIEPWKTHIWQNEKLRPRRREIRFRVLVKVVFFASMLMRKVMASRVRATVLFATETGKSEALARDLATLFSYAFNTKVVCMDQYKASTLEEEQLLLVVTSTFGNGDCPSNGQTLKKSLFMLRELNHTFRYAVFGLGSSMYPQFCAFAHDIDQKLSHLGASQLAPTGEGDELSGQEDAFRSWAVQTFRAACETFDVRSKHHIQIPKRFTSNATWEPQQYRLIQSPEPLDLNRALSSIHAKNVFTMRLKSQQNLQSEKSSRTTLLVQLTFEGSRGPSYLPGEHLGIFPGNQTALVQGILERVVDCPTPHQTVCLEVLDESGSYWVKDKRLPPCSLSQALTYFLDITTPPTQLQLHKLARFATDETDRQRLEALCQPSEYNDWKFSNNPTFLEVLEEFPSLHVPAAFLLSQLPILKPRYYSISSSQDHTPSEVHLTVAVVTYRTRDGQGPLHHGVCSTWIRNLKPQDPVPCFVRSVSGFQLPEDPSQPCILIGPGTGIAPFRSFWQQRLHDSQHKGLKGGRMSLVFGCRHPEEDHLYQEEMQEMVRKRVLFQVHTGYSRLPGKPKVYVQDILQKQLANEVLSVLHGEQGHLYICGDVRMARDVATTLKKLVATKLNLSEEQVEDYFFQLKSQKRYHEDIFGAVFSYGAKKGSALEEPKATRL

[2] = molecular target: T2, Nitric oxide synthase 3 (Bos taurus, UniProt P29473)
T2 sequence (P29473 whole entry): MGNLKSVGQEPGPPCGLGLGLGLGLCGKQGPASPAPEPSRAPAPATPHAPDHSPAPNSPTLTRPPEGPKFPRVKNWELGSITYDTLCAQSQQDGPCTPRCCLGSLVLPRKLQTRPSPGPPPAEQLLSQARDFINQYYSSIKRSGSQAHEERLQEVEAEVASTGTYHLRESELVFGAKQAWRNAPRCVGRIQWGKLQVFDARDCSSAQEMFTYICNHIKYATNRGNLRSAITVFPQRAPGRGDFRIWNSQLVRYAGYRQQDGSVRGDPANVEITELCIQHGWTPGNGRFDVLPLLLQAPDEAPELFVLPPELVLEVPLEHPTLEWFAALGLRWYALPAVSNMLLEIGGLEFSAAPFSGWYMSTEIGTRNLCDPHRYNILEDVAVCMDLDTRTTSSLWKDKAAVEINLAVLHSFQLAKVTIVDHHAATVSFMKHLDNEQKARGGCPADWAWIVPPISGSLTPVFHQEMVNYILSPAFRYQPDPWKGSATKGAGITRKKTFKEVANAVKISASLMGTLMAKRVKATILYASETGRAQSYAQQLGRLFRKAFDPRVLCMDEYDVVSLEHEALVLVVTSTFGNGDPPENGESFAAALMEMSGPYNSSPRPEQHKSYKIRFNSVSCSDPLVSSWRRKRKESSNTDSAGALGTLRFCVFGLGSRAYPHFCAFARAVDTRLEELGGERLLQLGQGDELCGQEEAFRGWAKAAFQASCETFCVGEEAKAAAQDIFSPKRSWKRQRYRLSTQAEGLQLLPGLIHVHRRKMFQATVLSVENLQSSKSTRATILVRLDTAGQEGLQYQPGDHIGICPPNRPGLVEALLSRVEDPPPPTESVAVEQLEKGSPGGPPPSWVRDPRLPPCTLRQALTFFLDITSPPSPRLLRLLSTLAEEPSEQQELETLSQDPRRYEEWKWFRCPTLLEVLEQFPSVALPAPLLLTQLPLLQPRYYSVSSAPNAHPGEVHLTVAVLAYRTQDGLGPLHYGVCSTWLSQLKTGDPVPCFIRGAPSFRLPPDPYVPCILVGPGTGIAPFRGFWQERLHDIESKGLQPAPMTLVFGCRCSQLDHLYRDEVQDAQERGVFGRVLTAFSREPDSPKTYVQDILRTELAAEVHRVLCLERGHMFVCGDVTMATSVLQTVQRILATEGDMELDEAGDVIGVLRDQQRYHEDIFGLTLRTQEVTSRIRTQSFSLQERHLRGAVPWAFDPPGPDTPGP

[3] = molecular target: Nitric oxide synthase 1 (Rattus norvegicus, UniProt P29476)

Row | SMILES | Ki [1] [µM] | Ki [2] [µM] | Ki [3] [µM]
1 | Cc1cc(N)nc(C[C@H]2CNC[C@H]2OCCNC(=O)Cc2cccc(F)c2)c1 (racemic) | 77 |  | 
2 | Cc1cc(N)nc(C[C@H]2CNC[C@H]2NC(=O)CNCCc2cccc(F)c2)c1 (racemic) | 5.4 | 27 | 
3 | Cc1cc(N)nc(C[C@H]2CNC[C@H]2OCC(=O)NCCc2cccc(F)c2)c1 (racemic) | 52 |  | 2.3
